The text below walks through data of paper PMC11582101, “Unlocking the potential: unveiling tyrphostins with Michael-reactive cyanoacrylate motif as promising inhibitors of human 5-lipoxygenase” (Pflugers Archiv, 2024).

Sequences of proteins named here, by UniProt entry; tags and fusion partners are left off. A change or cut given only in a name is not applied to a line headed by its entry.
UniProt P09917: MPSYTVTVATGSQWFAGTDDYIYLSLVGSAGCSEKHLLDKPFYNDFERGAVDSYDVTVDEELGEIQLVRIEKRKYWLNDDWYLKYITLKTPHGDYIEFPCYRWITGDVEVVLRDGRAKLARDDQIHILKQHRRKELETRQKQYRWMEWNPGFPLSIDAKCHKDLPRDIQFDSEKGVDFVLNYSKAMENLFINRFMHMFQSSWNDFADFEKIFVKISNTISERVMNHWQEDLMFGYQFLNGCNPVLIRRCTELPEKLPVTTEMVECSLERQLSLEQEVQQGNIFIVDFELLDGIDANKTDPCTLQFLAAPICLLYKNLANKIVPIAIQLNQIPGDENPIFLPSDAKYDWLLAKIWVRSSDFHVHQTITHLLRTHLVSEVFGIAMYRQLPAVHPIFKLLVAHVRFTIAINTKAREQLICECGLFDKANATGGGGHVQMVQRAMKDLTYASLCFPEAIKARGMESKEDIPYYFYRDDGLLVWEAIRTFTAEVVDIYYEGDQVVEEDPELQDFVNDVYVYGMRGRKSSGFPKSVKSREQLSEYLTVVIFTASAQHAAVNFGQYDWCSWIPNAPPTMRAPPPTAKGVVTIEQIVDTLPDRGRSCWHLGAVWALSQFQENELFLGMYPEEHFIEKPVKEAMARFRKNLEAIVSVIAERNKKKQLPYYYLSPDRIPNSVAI

The target of test [1] is T1, 5-LO (Homo sapiens, UniProt P09917). Nature of the test: 5-LO product formation in intact PMNL. The conditions noted are these: 20 µM AA, 2.5 µM A23187, (95% CI).
Test [2] deals with recombinant human 5-LO (r5-LO_WT) (Homo sapiens, UniProt P09917). Nature of the test: Determination of r5-LO activity (recombinant wild type 5-LO). The note with it: 3 µg r5-LO_WT, 15 min preincubation on ice, 10 µM AA, 2 mM CaCl2; (95% CI), n = 3–6.
Test [3] addresses T1, 5-LO. The note with it: read-out: IC50 5-LO in intact cells; cited from earlier work.

Regarding `COc1ccc(C=C(C#N)C#N)cc1`, the “IC50 for inhibition of 5-LO product formation, PMNL” value at 5-LO [1] (n = 3–6) was “no inhibition”; on 5-LO [1] (n = 3–6, listed as tyrphostin A1), “failed to inhibit”. Also, in test [2], the “IC50 for inhibition of 5-LO product formation, r5-LO_WT” value was “no inhibition”.
Regarding “1-[6-[[17-β-3-methoxyestra-1,3,5(10)-trien-17-yl]amino]hexyl]-1 H -pyrrole-2,5-dione”, the IC50 (as a rule, the concentration needed to halve the response being measured) on 5-LO [3] was 10 µM.
